Details: rat, in vivo, sc

AUC at day 21, higher than the saline control: 103%
AUC versus saline control: higher AUC
Substance: acetylcholinium hexenoate DES [aCH]
